Assays:
D(2) dopamine receptor = D(2) dopamine receptor (Rattus norvegicus, UniProt P61169); assay: Compound was tested for antagonistic activity against D2 receptor from rat striatum, used [3H]raclopride as radioligand; type: functional
[1] = Binding affinity against 5-hydroxytryptamine 1A receptor from bovine hippocampus, used [3H]8-OH-DPAT as radioligand

Amino acid sequences for entries named in this document (tags omitted).
UniProt P61169, whole entry: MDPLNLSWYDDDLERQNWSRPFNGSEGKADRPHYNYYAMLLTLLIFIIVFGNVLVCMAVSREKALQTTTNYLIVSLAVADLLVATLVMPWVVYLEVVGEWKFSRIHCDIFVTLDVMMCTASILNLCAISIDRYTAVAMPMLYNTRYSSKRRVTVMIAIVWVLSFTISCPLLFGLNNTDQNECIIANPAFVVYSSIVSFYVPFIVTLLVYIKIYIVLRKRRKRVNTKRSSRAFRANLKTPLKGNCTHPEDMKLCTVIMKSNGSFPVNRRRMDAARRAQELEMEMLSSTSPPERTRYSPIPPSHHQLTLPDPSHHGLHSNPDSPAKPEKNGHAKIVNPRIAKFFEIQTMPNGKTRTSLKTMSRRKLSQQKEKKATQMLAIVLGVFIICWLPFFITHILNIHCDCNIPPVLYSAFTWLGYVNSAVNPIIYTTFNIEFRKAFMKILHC

## C=CCN1CCC2c3c(cccc3OC)CCC21 (racemic)
D(2) dopamine receptor
  Ki: 13 nM

## C=CCN1CC[C@H]2c3c(cccc3OC)CC[C@H]21 (single isomer, unassigned)
D(2) dopamine receptor
  Ki: 270 nM

## CCCN1CC[C@H]2c3c(O)cccc3CC[C@H]21
[1]
  Ki: 0.1 nM

## C=CCN1CC[C@H]2c3c(cccc3OC)CC[C@H]21
D(2) dopamine receptor
  Ki: 5.3 nM

— ChEMBL document CHEMBL1126679 (J Med Chem, 1993)
